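Five compound concentrations were applied to cells in 96-well plates for 48 hours; endpoints were derived by simple linear interpolation of the resulting dose-response curve. At the GI50, growth is halved. TGI: concentration producing complete growth inhibition.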
What was measured:
Assay in all cases: NCI tumour cell line growth inhibition, 48 h
[1] = tested on: UO-31 renal
[2] = tested on: HCC-2998 colon
[3] = tested on: UACC-62 melanoma
[4] = tested on: MCF7 breast
[5] = tested on: T-47D breast
[6] = tested on: HCT-15 colon
[7] = tested on: K-562 leukemia
[8] = tested on: CAKI-1 renal
[9] = tested on: SK-MEL-5 melanoma
[10] = tested on: MDA-MB-231 breast
[11] = tested on: A498 renal
[12] = tested on: KM12 colon
[13] = tested on: MOLT-4 leukemia
[14] = tested on: HS 578T breast
[15] = tested on: SF-539 CNS
[16] = tested on: OVCAR-8 ovarian
[17] = tested on: TK-10 renal
[18] = tested on: OVCAR-4 ovarian
[19] = tested on: A549 NSCLC
[20] = tested on: NCI-H460 lung
[21] = tested on: IGROV1 ovarian
[22] = tested on: HCT-116 colon
[23] = tested on: HOP-92 NSCLC
[24] = tested on: SK-MEL-2 melanoma
[25] = tested on: HOP-62 NSCLC
[26] = tested on: LOX IMVI melanoma
[27] = tested on: HT29 colon
[28] = tested on: NCI-H23 lung
[29] = tested on: NCI/ADR-RES ovarian
[30] = tested on: UACC-257 melanoma

C[As](C)SCC(O)CO (centres undefined)
TGI [1]: 33.5 µM
GI50 [2]: 11.4 µM
TGI [2]: 18.2 µM
GI50 [3]: 2.71 µM
TGI [3]: 16.1 µM
GI50 [4]: 1.44 µM
TGI [4]: 23.7 µM
GI50 [5]: 3.69 µM
TGI [5]: 15 µM
GI50 [6]: 1.47 µM
TGI [6]: 37.1 µM
GI50 [7]: 0.671 µM
TGI [7]: 27.6 µM
GI50 [8]: 1.16 µM
TGI [8]: 10.1 µM
GI50 [9]: 3.39 µM
TGI [9]: 7.2 µM
GI50 [10]: 2.7 µM
TGI [10]: 7.02 µM
GI50 [11]: 1.66 µM
TGI [11]: 10.9 µM
GI50 [12]: 9.61 µM
TGI [12]: 27.4 µM
GI50 [13]: 1.3 µM
TGI [13]: 20.7 µM
GI50 [14]: 2.48 µM
TGI [14]: 14.1 µM
GI50 [15]: 4.11 µM
TGI [15]: 9.76 µM
GI50 [16]: 4.05 µM
TGI [16]: 11.8 µM
GI50 [17]: 1.39 µM
TGI [17]: 7.67 µM
GI50 [18]: 9.17 µM
TGI [18]: 20.1 µM
GI50 [19]: 6.87 µM
TGI [19]: 32.3 µM
GI50 [20]: 9.38 µM
TGI [20]: 45.3 µM
GI50 [21]: 3.73 µM
TGI [21]: 30 µM
GI50 [22]: 7.26 µM
TGI [22]: 20.9 µM
GI50 [23]: 3.01 µM
TGI [23]: 8.5 µM
GI50 [24]: 2.14 µM
TGI [24]: 41.6 µM
GI50 [25]: 6.96 µM
TGI [25]: 19.9 µM
GI50 [26]: 3.41 µM
TGI [26]: 34.7 µM
GI50 [27]: 2.74 µM
TGI [27]: 35 µM
GI50 [28]: 0.781 µM
TGI [28]: 4.14 µM
GI50 [29]: 3.26 µM
TGI [29]: 24 µM
GI50 [30]: 3.81 µM
TGI [30]: 16 µM

Source: PubChem BioAssay (NCI)
